The record followed here is patent publication US20180217151A1 (MILTENYI BIOTEC, published 2018).

This test addresses T1, recombinant CD8 antigen ( (the Fab labels human PBMCs)).
T1 construct: extracellular domain; also called CD8, recombinant extracellular domain
The test can be described thus: SPR (Biacore), recombinant antigen (extracellular domain) immobilized by amine coupling, Fab as analyte, 1:1 binding mass transfer model. As for the experimental part:
FIGS. 7A and 7B show surface plasmon resonance sensorgrams of anti-CD25 rFabs using immobilized recombinant CD25 antigen. At t 110 sec, different concentrations of Fab were injected for 180 sec. At t 290 sec, the dissociation phase started. […] FIG. 7B: RFT5-LAV rFab as an example for an antigen binding molecule that enables reversible labeling.
The Fab variants of example 1 and 4 were analyzed by surface plasmon resonance spectroscopy (Biacore™). Therefore, the specific recombinant antigen (extracellular domain, expressed in mammalian cells) for a Fab was immobilized on a CMS chip by standard amine coupling. The Fab variants were used as analytes in HBS-EP buffer (0.01 M HEPES pH 7.4, 0.15 M NaCl, 3 mM EDTA, 0.005% v/v Surfactant P20) in a concentration of up to 2 μM Fab. Evaluation was conducted with the Biacore™ X-100 Evaluation Software using an 1:1 binding mass transfer model. […] FIG. 7 exemplarily depicts Biacore™ sensorgrams of the anti-CD25 Fabs RFT5 rFab (FIG. 7A) and RFT5-LAV rFab (FIG. 7B) against immobilized recombinant CD25 antigen. In addition, published values of the anti-CD4 Fab variants wild-type, 13B8.2-Y92A, and 13B8.2-F100A are shown (taken from U.S. Pat. No. 7,482,000).

B1: OKT8-LAV rFab (Fab, V domains shown)
VH: EVQLQQSGAELVKPGASVKLSCTASGFNIKDTYIHFVRQRPEQGLEWIGRIDPANDNTIYASKFQGKATITADTSSNTAYMHLSSLTSGDTAVYYCGRGYGYYVFDHWGQGTTVTVSS
VL: DVQINQSPSFLAASPGETITINCRTSRSISQYLAWYQEKPGKTNKLLIYSGSTLQSGIPSRFSGSGSGTDFTLTISGLEPEDFAMYYCQQANENPLTFGAGTKLELRR
modifications: biotin (thiol-reactive reagent, e.g. maleimide-PEO2-biotin) on cysteine(s) of the reduced disulfide bridge; position not stated
B1: the Kd is 29 nM, the koff amounted to 0.004 s⁻¹ and the kon turned out to be 140000 M⁻¹ s⁻¹.
